Source: ChEMBL document CHEMBL5729292, “Bromodomain inhibitor compound and use thereof” (2022)

Target: Bromodomain-containing protein 4 (Homo sapiens, UniProt O60885)
Experiment: Inhibitory Activity Assay of BRD4 Small Molecule Compounds: AlphaScreen kit (Perkin Elmer) was used to detect effect of the compounds on binding of BRD4 bromodomain to acetylated histone H4 polypeptide. […] Each of fusion proteins containing (His)6tag can be recognized and bound by Ni2+. […] The donor microbeads were coated with streptavidin and can bind to biotinylated acetylated H4 polypeptide. The acceptor microbeads were coated with Ni2+ ions and can bind to the BD1 protein with (His)6tag. When the BD1 protein recognized the acetylated H4 polypeptide, the donor microbeads and the acceptor microbeads can be brought closer to a certain distance. Within this range, the donor microbeads can produce singlet oxygen after being irradiated with a 680 nm excitation light, and transfer the singlet oxygen to the acceptor microbeads. After a series of cascade chemical reactions, the acceptor microbeads will generate an emission wave of 520-620 nm, which in turn can be detected a signal. In this experiment, the test system was 20 μL, and the compound needs to be diluted in buffer 1 (20 mM HEPES pH 7.4, 150 mM NaCl, 1 mM dithiothreitol). First, a solution of 20 mM compound was consecutively diluted twice, each in 10 times, totally in 100 times to a concentration of 200 μM. […] […]

`Cc1cc(-c2cc(NS(C)(=O)=O)ccc2Oc2ccccc2)n2cc[nH]c(=O)c12` was tested. Which IC50 did it give?
The IC50 was 42.9 nM.
